pKi: −log10 of the molar value.
Assays:
[1] = target: Alpha-2A adrenergic receptor (Homo sapiens, UniProt P08913)
[2] = target: Alpha-2B adrenergic receptor (Rattus norvegicus, UniProt P19328)

Protein sequences, listed by entry. Tags and fused reporters are not part of them.
UniProt P08913, whole entry: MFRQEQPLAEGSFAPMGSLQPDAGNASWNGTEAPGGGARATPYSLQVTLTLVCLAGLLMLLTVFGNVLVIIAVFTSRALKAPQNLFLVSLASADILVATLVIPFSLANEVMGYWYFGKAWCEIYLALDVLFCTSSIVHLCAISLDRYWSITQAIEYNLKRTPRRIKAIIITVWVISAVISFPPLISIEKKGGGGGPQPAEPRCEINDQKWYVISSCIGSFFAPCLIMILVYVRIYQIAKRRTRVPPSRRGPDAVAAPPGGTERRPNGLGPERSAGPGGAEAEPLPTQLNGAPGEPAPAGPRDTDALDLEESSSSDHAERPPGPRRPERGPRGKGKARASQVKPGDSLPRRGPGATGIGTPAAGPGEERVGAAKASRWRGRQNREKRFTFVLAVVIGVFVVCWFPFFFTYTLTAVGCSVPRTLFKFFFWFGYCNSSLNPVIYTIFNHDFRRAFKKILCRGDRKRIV
UniProt P19328, whole entry: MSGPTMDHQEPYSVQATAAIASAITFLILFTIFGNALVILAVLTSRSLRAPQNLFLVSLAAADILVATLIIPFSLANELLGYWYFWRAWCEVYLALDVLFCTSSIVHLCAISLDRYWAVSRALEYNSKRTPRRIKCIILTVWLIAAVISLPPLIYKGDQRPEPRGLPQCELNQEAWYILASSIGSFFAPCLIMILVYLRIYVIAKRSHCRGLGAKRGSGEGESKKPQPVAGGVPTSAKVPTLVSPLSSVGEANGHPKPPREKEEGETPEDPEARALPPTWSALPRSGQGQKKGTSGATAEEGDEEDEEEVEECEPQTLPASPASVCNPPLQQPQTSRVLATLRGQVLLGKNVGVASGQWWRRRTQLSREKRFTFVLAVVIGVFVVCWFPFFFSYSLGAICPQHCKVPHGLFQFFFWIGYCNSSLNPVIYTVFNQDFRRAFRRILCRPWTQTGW

Question: How did the pKi [1] turn out when `Clc1ccc2nsnc2c1NC1=NCCN1` was run?
Answer: 7.21

Question: How did the pKi [2] turn out when `CSc1ccc2c(c1)N(CC[C@@H]1CCCCN1C)c1ccccc1S2` [10-[2-(1-Methyl-piperidin-2-yl)-ethyl]-2-methylsulfanyl-10H-phenothiazine (thioridazine)] was run?
Answer: 6.59

From BindingDB's records for PubMed 1656026 (University of Nebraska, 1991)
